Measurements from patent US20250270231A1, “ULOTARONT HYDROCHLORIDE MANUFACTURING PROCESS” (Sumitomo Pharma America, Inc., priority 2024, published 2025).

Test: Particle size distribution of ulotaront HCl API lots (laser diffraction)
Format: physicochemical
Conditions: for SPAN: (D90 − D10) divided by D50; for Particle Size Distribution D10 / Particle Size Distribution D50 / Particle Size Distribution D90: ulotaront HCl API lots, Table 1; for Dv(10) / Dv(50) / Dv(90): PSD range study lots, average of three individual measurements
Procedure: The particle size was measured before and after milling using laser diffraction.

| Structure (SMILES) | SPAN | Particle Size Distribution D10 [μm] | Particle Size Distribution D50 [μm] | Particle Size Distribution D90 [μm] | Dv(10) [μm] | Dv(50) [μm] | Dv(90) [μm] |
| --- | --- | --- | --- | --- | --- | --- | --- |
| CNC[C@@H]1OCCc2ccsc21.Cl [API-8] | 1.82 | 39 | 108 | 236 |  |  |  |
| CNC[C@@H]1OCCc2ccsc21.Cl [API Lot 2] |  |  |  |  | 14 | 67 | 218 |
| CNC[C@@H]1OCCc2ccsc21.Cl [API-9] | 2.22 | 10 | 54 | 130 |  |  |  |
| CNC[C@@H]1OCCc2ccsc21.Cl [API-6] | 1.43 | 27 | 65 | 120 |  |  |  |
| CNC[C@@H]1OCCc2ccsc21.Cl [API-2] | 1.79 | 69 | 149 | 335 |  |  |  |
| CNC[C@@H]1OCCc2ccsc21.Cl [API-7] | 1.91 | 14 | 65 | 138 |  |  |  |
| CNC[C@@H]1OCCc2ccsc21.Cl [API Lot 3] |  |  |  |  | 8 | 37 | 120 |
| CNC[C@@H]1OCCc2ccsc21.Cl [API-1] | 1.28 | 36 | 68 | 123 |  |  |  |
| CNC[C@@H]1OCCc2ccsc21.Cl [API-3] | 1.96 | 69 | 157 | 376 |  |  |  |

Next, values leading:

| SPAN | Particle Size Distribution D10 [μm] | Particle Size Distribution D50 [μm] | Particle Size Distribution D90 [μm] | Dv(10) [μm] | Dv(50) [μm] | Dv(90) [μm] | Structure (SMILES) |
| --- | --- | --- | --- | --- | --- | --- | --- |
| 0.82 | 72 | 108 | 161 |  |  |  | CNC[C@@H]1OCCc2ccsc21.Cl [API-5] |
| 1.63 | 74 | 189 | 382 |  |  |  | CNC[C@@H]1OCCc2ccsc21.Cl [API-4] |
|  |  |  |  | 22 | 98 | 252 | CNC[C@@H]1OCCc2ccsc21.Cl [API Lot 1] |
| 1.90 | 33 | 106 | 234 |  |  |  | CNC[C@@H]1OCCc2ccsc21.Cl [API-10] |
